Measured values: ChEMBL document CHEMBL4387722

The chains behind the UniProt entries cited, without tags or fusion partners.
UniProt P0A6F5, whole entry, looked up: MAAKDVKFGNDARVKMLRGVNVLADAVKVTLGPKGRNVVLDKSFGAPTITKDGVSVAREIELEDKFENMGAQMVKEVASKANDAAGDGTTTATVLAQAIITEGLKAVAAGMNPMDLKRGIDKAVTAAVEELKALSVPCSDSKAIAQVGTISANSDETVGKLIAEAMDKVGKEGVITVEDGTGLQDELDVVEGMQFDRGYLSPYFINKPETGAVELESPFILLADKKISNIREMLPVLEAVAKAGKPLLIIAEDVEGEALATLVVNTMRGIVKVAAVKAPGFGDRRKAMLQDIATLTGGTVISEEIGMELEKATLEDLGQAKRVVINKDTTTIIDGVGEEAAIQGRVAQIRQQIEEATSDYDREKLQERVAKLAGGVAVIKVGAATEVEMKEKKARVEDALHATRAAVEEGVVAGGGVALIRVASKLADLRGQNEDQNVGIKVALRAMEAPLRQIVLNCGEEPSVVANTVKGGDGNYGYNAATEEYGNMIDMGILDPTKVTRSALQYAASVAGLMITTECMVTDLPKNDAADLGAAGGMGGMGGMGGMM

Legend:
E. coli GroEL/ES [1] = target: T1, E. coli GroEL/ES (Escherichia coli, UniProt P0A6F5); experiment: Inhibition of Escherichia coli GroEL expressed in Escherichia coliDH5alpha/Escherichia coli GroES expressed in Escherichia coli BL21 (DE3) assessed as reduction in GroEL/GroES-mediated denatured pig heart mitochondrial MDH refolding by measuring MDH enzyme activity using sodium mesoxalate as substrate after 20 to 40 mins by spectrometric analysis
E. coli GroEL/ES [2] = target: T1, E. coli GroEL/ES; experiment: Inhibition of Escherichia coli GroEL expressed in Escherichia coli DH5alpha/Escherichia coli GroES expressed in Escherichia coli BL21 (DE3) assessed as reduction in GroEL/GroES-mediated denatured rhodanese refolding by measuring rhodanese enzyme activity after 45 mins by Fe(SCN)3 dye based spectrometric analysis

| SMILES | IC50 (E. coli GroEL/ES [1]) [µM] | IC50 (E. coli GroEL/ES [2]) [µM] |
| --- | --- | --- |
| O=S(=O)(Nc1ccc2oc(-c3ccccc3)nc2c1)c1ccc(F)c(C(F)(F)F)c1 | 48 | 122 |
| O=S(=O)(Nc1ccc2oc(-c3ccccc3)nc2c1)c1cccc(Cl)c1 | 78 | 124 |
| COc1cccc(S(=O)(=O)Nc2ccc(-c3nc4ccccc4o3)cc2)c1 | 76 | 174 |
| COc1ccc(S(=O)(=O)Nc2ccc3oc(-c4ccccc4)nc3c2)cc1 | 95 | 175 |
| O=S(=O)(Nc1ccc(-c2nc3ccccc3o2)cc1)c1ccc(O)cc1 | 54 | 138 |
| CS(=O)(=O)Nc1ccc2oc(-c3ccccc3)nc2c1 | > 100 | 193 |
| Cc1cccc(S(=O)(=O)Nc2ccc3oc(-c4ccccc4)nc3c2)c1 | > 100 | 200 |
| O=S(=O)(Nc1ccc2oc(-c3ccccc3)nc2c1)c1ccc(O)cc1 | 64 | 111 |
| COc1ccc(S(=O)(=O)Nc2ccc(-c3nc4ccccc4o3)cc2)cc1 | 63 | 140 |
| COc1ccccc1S(=O)(=O)Nc1ccc(-c2nc3ccccc3o2)cc1 | 90 | 113 |
| O=S(=O)(Nc1ccc2oc(-c3ccccc3)nc2c1)c1cccc(F)c1 | > 100 | 146 |
| O=S(=O)(Nc1ccc(-c2nc3ccccc3o2)cc1)c1cccc(O)c1 | 72 | 132 |
| O=S(=O)(Nc1ccc2oc(-c3ccccc3)nc2c1)c1ccccc1O | 70 | 194 |
